Data as given in PubChem BioAssay AID2112 (National Center for Advancing Translational Sciences (NCATS), 2009).
Only a part is listed here, and it is no random draw. Some results for these compounds are left out of this collection, so the calls shown say nothing about other tests. Calls of active or inactive are those of the source. Calls follow the shape of the dose curve; as a rule, active = well fitted inhibition curve with a large enough effect; inconclusive = small, poorly fitted or top-dose-only effect, or effect the other way, or another doubt; inactive = no such curve, though single readings can be large or run the other way.

Biological target: Lysosomal alpha-glucosidase (Homo sapiens) (UniProt P10253)
Assay: qHTS Assay for Inhibitors and Activators of Human alpha-Glucosidase From Spleen Homogenate;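 also: 0% = enzyme with vehicle and -100% = no enzyme basal signal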
Conditions: 4-MU-alpha-glucoside fluorescence; at 79.9 µM (top of the series)
Source text: NIH Chemical Genomics Center [NCGC] NIH Molecular Libraries Probe Production Centers Network [MLPCN] MLPCN Grant: R03 MH084841-01 Assay Submitter (PI): Wei Zheng NCGC Assay Overview: Alpha-glucosidase is responsible for the hydrolysis of terminal, non-reducing 1,4-linked alpha-D-glucose residues, which releases alpha-D-glucose. It is a lysosomal hydrolase that is required for the degradation of a small percentage (1-3%) of cellular glycogen in humans. Deficiency of this enzyme results in glycogen-storage disease type II (GSDII), also referred to as Pompe disease, an autosomal recessive disorder. Structurally normal glycogen is accumulated in the lysosomes and cytoplasm in affected patients, primarily in muscle tissues. Excessive glycogen storage within lysosomes may interrupt normal functioning of other organelles and leads to cellular injury. In turn, this leads to enlargement and dysfunction of the entire organ involved (eg: cardiomyopathy and muscle weakness). It has been reported that the improper folding and trafficking of alpha-glucosidase resulting from genetic mutations may account for a significant number of Pompe patients. […] We optimized this alpha-glucosidase assay in 1536-well plate format for identification of novel small molecule inhibitors or activators with structures other than the sugar analogs in order to develop new pharmacological chaperones. In particular, this assay is directed towards discovering compounds active in a more natural setting, tissue homogenate, that may have been missed by screens of the purified enzyme under more stringent conditions.
NCGC Assay Protocol Summary: This is a fluorogenic enzyme assay with 4-methylumbelliferyl-alpha-D-glucopyranoside as the substrate and human spleen homogenate containing alpha-glucosidase as the enzyme preparation. Upon hydrolysis of this fluorogenic substrate, the resulting product, 4-methylumbelliferone (which excites at 365 nm and emits at 440 nm) can be detected by a fluorescence plate reader. Data were normalized to the controls for basal activity (without enzyme) and 100% activity (with enzyme). The AC50 values were determined from concentration-response data modeled with the standard Hill equation. Assay buffer: 50 mM citric acid (titrated with potassium phosphate to pH 5.0), 0.01% Tween-20 (pH 5.0 is an optimal condition for this enzyme assay) 1536-well assay protocol for the alpha-glucosidase from human spleen homogenate: (1) Add 2 ul/well spleen homogenate (1 ug) (2) Add 23 nL compounds in DMSO solution. The final titration was 0.5 nM to 58 uM. (3) Add 2 ul of substrate (1 mM final) (4) Incubate at 37 C for 40 min (5) Add 2 ul stop solution (1M NaOH and 1M Glycine mixture, pH 10) (6) Detect the assay plate in a ViewLux plate reader (PerkinElmer) with Ex=365 nm and Em=440nm. Keywords: Alpha-glucosidase, Pompe Disease, pharmacological chaperone, chaperone therapy, high throughput screening, alpha-glucosidase inhibitor, MLSMR, MLSCN, NIH Roadmap, qHTS and NCGC

| Structure (SMILES) | activity change, negative = inhibition |
| --- | --- |
| COc1cccc(C(=O)NCC2(N3CCCCC3)CCCCC2)c1 | inactive: -6.22% |
| CN(C)c1cccc(C(=O)NCC2(N(C)C)CCCCC2)c1 | inactive: 4.3% |
| COc1ccc(Br)c(C(=O)NCC2(N3CCCCC3)CCCCC2)c1 | inactive: -9.91% |
| O=C(OC1CN2CCC1CC2)C(CO)(c1ccccc1)c1ccccc1 (stereo unspecified) | inactive: -0.104% |
| CC(C)N1C(=O)CC2(CCN(CCOC(=O)C(O)(c3ccccc3)c3ccccc3)CC2)C1=O | inactive: -25.5% |
| CCN(CC)CC(C)C(C)OC(=O)C(O)(c1ccccc1)c1ccccc1 (stereo unspecified) | inactive: -3.03% |
| O=C(NCC1(N2CCCCC2)CCCCC1)c1cc([N+](=O)[O-])ccc1Cl | inactive: 7.87% |
| CCN1CCCC(OC(=O)C2(O)c3ccccc3C=Cc3ccccc32)C1 (stereo unspecified) | inactive: -2.41% |
| C=CCN1CCN(CCOC(=O)C(O)(c2ccccc2)c2ccccc2)CC1 | inactive: 7.23% |
| Cc1ccccc1C(=O)NCC1(N2CCCCC2)CCCCC1 | inactive: -5.46% |
| CN(C)C1CCCC1OC(=O)C(O)(c1ccccc1)c1ccccc1 (stereo unspecified) | inactive: 2.41% |
